From PubChem BioAssay (EPA / NIEHS)
The entries are a selection whose mix differs from that of the whole data set. Calls of active or inactive are those of the source. The calls were made as follows, unless noted: active = hit-call score of the fitted dose curve at least 0.9, where 1 is the maximum; inactive = score below 0.9.

Chains of the proteins cited; added tags and fusions are not shown.
UniProt P37231, whole entry: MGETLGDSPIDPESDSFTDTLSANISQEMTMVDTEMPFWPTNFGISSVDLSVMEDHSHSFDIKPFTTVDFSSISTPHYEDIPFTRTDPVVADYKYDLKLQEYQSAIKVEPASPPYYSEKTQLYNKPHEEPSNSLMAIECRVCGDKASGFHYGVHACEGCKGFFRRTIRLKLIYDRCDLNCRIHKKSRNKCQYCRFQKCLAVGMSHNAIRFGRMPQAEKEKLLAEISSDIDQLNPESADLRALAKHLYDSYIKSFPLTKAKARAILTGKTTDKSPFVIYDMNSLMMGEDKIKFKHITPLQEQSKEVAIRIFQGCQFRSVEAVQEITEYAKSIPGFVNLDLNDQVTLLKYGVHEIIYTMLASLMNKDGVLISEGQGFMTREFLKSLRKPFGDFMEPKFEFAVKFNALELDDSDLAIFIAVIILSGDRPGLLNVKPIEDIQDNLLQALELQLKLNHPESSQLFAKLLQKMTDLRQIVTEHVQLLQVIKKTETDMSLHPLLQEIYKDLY

Columns and labels:
[1] = target: Peroxisome proliferator-activated receptor gamma (Homo sapiens) (UniProt P37231); test: OT_PPARg_PPARgSRC1_1440: Odyssey Thera (OT) 24-hour Protein-Complementation Assay for Peroxisome Proliferator-activated Receptor Gamma/ SRC-1 Co-activator (AID 2283388; active = hit-call score of the fitted dose curve at least 0.9, where 1 is the maximum;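 also: nuclear to cytoplasmic ratio of reconstituted Venus YFP fluorescence in fixed imaged cells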)
Description: OT_PPARg_PPARgSRC1_1440 is a cell-based assay that uses HEK293T, a human kidney cell line, with measurements taken at 24 hours after chemical dosing in a 384-well plate.OT_PPARg_PPARgSRC1_1440 is one of one assay component(s) measured or calculated from the OT_PPARg_PPARgSRC1_1440 assay. It is designed to make measurements of protein fragment complementation, a form of binding reporter, as detected with fluorescence intensity signals by Protein-fragment Complementation technology.Data from the assay component OT_PPARg_PPARgSRC1_1440 was analyzed into 1 assay endpoint. This assay endpoint, OT_PPARg_PPARgSRC1_1440, was analyzed in the positive analysis fitting direction relative to DMSO as the negative control and baseline of activity. Using a type of binding reporter, measures of receptor for gain-of-signal activity can be used to understand the binding at the pathway-level as they relate to the gene PPARG. Furthermore, this assay endpoint can be referred to as a primary readout, because the performed assay has only produced 1 assay endpoint. To generalize the intended target to other relatable targets, this assay endpoint is annotated to the nuclear receptor intended target family, where the subfamily is non-steroidal.
The OT PPARg/SRC-1 assay assessed receptor-chemical interactions using a rapidly maturing, intensely fluorescent mutant of YFP known as Venus, rationally dissected into two separate fragments. The fragments were obtained as follows: first, fragments coding for YFP1 and YFP2 (corresponding to amino acid residues 1-158 and 159-239 of the full length YFP, respectively) were generated by oligonucleotide synthesis (Blue Heron Biotechnology), and then PCR mutagenesis was used to generate the mutant fragments IFP1 and IFP2. Fusion constructs were transfected into HEK293T cells with a (Gly4Ser)2 linker between the PPARg/SRC-1 and YFP fragment genes to facilitate complementation when interacting proteins bring fragments into close proximity. The construct is transiently transfected in HEK293T cells 48 hours prior to treatment with test compounds. Cells are seeded into optical quality 384-well poly-D-lysine coated plates in MEM alpha medium (Invitrogen) supplemented with 10 percent FBS (Gemini Bio-Products) 1 percent penicillin and 1 percent streptomycin, and grown in 37C incubator equilibrated to 5 percent CO2. Cells are allowed to adhere for 24 hours prior to treatment with compounds of interest or controls for 24 hours. Cells are fixed in 4 percent formaldehyde and stained with Draq5 (BioStatus) to identify cells and subcellular compartment boundaries prior to signal detection. 8 Images per well were acquired on an Evotec Opera at 2 wavelengths (488 and 635nm), and the ratio of fluorescence in the nucleus relative to fluorescence in the cytoplasm (N/C Ratio) in the 488nm channel was calculated for a minimum of 350 cells per image.

[2] = CEETOX_H295R_11DCORT: CeeTox H295R High-throughput Steroidogenesis Assay for 11-Deoxycortisol (11DCORT) (AID 2283432); settings: actives raise or lower the signal
Procedure, shortened: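 Adrenal carcinoma line H295R, run per OECD 456 with minor changes, was forskolin-stimulated (10 uM, 48 h) before a 48 h chemical exposure at 0.1% DMSO. Secreted 11-deoxycortisol was quantified by HPLC-MS/MS.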

[3] = CEETOX_H295R_OHPREG: CeeTox H295R High-throughput Steroidogenesis Assay for OH-Pregnenolone (OHPREG) (AID 2283434); settings: actives raise or lower the signal
Procedure, shortened: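 Hormone levels in spent medium were measured by tandem mass spectrometry following liquid-liquid extraction. Cells (H295R) had been forskolin-stimulated (10 uM, 48 h) before a 48 h chemical exposure at 0.1% DMSO, with activity fitted in both directions against DMSO.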

[4] = CEETOX_H295R_OHPROG: CeeTox H295R High-throughput Steroidogenesis Assay for OH-Progesterone (OHPROG) (AID 2283435); settings: actives raise or lower the signal
Procedure, shortened: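 H295R human adrenal cells were prestimulated 48 h with 10 uM forskolin, then exposed 48 h to test chemical (0.1% DMSO final). 17alpha-hydroxyprogesterone in medium was measured by HPLC-MS/MS after MTBE extraction; bidirectional fitting vs DMSO.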

[5] = CEETOX_H295R_ANDR: CeeTox H295R High-throughput Steroidogenesis Assay for Androstenedione (ANDR) (AID 2283436); settings: actives raise or lower the signal
Procedure, shortened: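 Read-out is androstenedione secreted into medium, measured by tandem mass spectrometry after liquid-liquid extraction. Cells were H295R, dosed for 48 h per modified OECD 456; activity fitted in both directions relative to DMSO.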

[6] = CEETOX_H295R_CORTIC: CeeTox H295R High-throughput Steroidogenesis Assay for Corticosterone (CORTIC) (AID 2283437); settings: actives raise or lower the signal;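 also: corticosterone secreted into medium quantified by mass spectrometry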
Procedure, shortened: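 Corticosterone secreted into medium is measured by reverse-phase HPLC with tandem MS following liquid-liquid extraction. Cells are forskolin-stimulated (10 uM, 48 h) before 48 h test exposure; activity fitted in both directions against DMSO.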

[7] = CEETOX_H295R_CORTISOL: CeeTox H295R High-throughput Steroidogenesis Assay for Cortisol (AID 2283438); settings: actives raise or lower the signal;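 also: cortisol secreted into medium quantified by LC-MS/MS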
Procedure, shortened: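 H295R human adrenal cells were prestimulated 48 h with 10 uM forskolin, then exposed 48 h to test chemical (0.1% DMSO final). Medium cortisol was quantified by HPLC-MS/MS after MTBE extraction; bidirectional fitting relative to DMSO baseline.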

[8] = CEETOX_H295R_DOC: CeeTox H295R High-throughput Steroidogenesis Assay for DOC (AID 2283439); settings: actives raise or lower the signal
Procedure, shortened: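 H295R adrenal cells prestimulated 48 h with 10 uM forskolin, then exposed 48 h to test chemical (0.1% DMSO final). Medium 11-deoxycorticosterone extracted with MTBE, quantified by HPLC-MS/MS; bidirectional fit versus DMSO baseline; MTT viability in same wells.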

[9] = CEETOX_H295R_PROG: CeeTox H295R High-throughput Steroidogenesis Assay for Progesterone (PROG) (AID 2283442); settings: actives raise or lower the signal;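 as to AC50: human H295R adrenal cells primed with 10 µM forskolin before dosing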
Procedure, shortened: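 H295R human adrenal cells were prestimulated with 10 uM forskolin for 48 h, then exposed to test chemical (0.1% DMSO final) for 48 h. Medium progesterone was MTBE-extracted and quantified by HPLC-MS/MS, with bidirectional fitting against DMSO.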

[10] = read-out: Tumor necrosis factor receptor superfamily member 6 (Homo sapiens) (UniProt P25445); test: LTEA_HepaRG_FAS: Life Technologies and Expression Analysis (LTEA) Assay for Fas cell surface death receptor (FAS) using HepaRG (AID 2283447); settings: actives raise or lower the signal; mRNA level, 48 h
Description: LTEA_HepaRG is a cell based, multiplexed-readout assay that uses HepaRG, a human liver cell line, with measurements taken at 48 hours after chemical dosing on a 96-well plate.LTEA_HepaRG_FAS is one of 102 assay component(s) measured in the LTEA HepaRG cell culture assay. It is a marker of Cell proliferation, survival, death.Data from the assay component LTEA_HepaRG_FAS was analyzed into 1 endpoint. This assay endpoint, LTEA_HepaRG_FAS, was analyzed with bidirectional fitting relative to DMSO as the negative control and baseline of activity. Using a type of inducible reporter, measures of mRNA induction for gain or loss-of-signal activity can be used to understand regulation of transcription factor activity. To generalize the intended target to other relatable targets, this assay endpoint is annotated to the cytokine receptor intended target family, where the subfamily is TNF receptor.
A total of 1060 chemcials from the ToxCast library were tested in eight-point concentration-response experiments. Cell culture and cytotoxicity assays were conducted at Thermo Fisher Scientific's Custom Services facility (Madison, WI). A single lot of human HepaRG cells (Thermo Fisher Scientific, Frederick, MD) was used for the cell culture experiments. 96-well format collagen type I coated plates of human HepaRG cells were prepared using established methods. Briefly, cryopreserved HepaRG cells were thawed, plated at a density of approximately 100,000 cells/well in HepaRG Thaw, Plate, and General Purpose media (HPRG770, Thermo Fisher Scientific), and incubated for 48 hours. 0.5% DMSO was selected as vehicle control to balance the requisite need of DMSO in HepaRG cultures to maintain differentiation (for example, baseline metabolism, proportions of hepatocytes vs. cholangiocytes), while enabling further hepatic receptor pathway activation (for example, PXR and CAR) in response to chemical exposure. 48 hours after plating, the culture medium was replaced with HepaRG Serum-Free Incudtion Media. Cells were exposed to each test chemical in duplicate and maintained in CO2 incubators for another 48 hours. Chemical plates were thawed to room temperature and 200x concentrations of treatment groups were prepared. 8-point conentration-reponse curves were made with the highest exposure at 100 uM, followed by half-log dilutions, all in 0.5% DMSO. Each test plate contained variouse controls, induction positive controls (1mM phenobarbital), cytotoxicity positive controls ([…] aflatoxin B1), vehicle controls (0.5% DMSO), and total lysis controls (0.5% DMSO). Cell morphology images were taken using an Essen IncuCyte FLR automated microscope, with six 96-well plates imaged in about 24 minutes. Images were captured and exported and JPEG files. Spent culture media was transfered to black-well plates for the LDH assay, and remaining media was sorted at -80 C for later use. Cells were treated with RLT buffer and frozen until shipped for gene expression analysis. Total RNA was isolated from the cell suspension in 75 uL of Buffer RLT (Qiagen, Germantown, MD 20874) by Quintiles/Expression Analysis (Durham, NC) using a custom isolation procedure. Total RNA from each plate well was transferred to a preamplification plate. Fluidigm's 96.96 Dynamic ArrayTM (Fluidigm, Amsterdam, the Netherlands) technology was used for gene expression analyses by quantitative reverse transcription polymerase chain reaction (qRT-PCR, performed by Quintiles/Expression Analysis, Durham, NC)89. […]

Measured: AC50

Cc1c([N+](=O)[O-])cccc1[N+](=O)[O-]
inactive: all assays above

CC(C)OP(C)(=O)OC(C)C
inactive: [1] | [10]

Cc1cccc([N+](=O)[O-])c1[N+](=O)[O-]
active: [8] 3.29 µM | [9] 3.13 µM
inactive: all other assays above

O=[N+]([O-])OCC(CO[N+](=O)[O-])(CO[N+](=O)[O-])CO[N+](=O)[O-]
inactive: [1]

O=[N+]([O-])c1cccc([N+](=O)[O-])c1
inactive: [1] | [10]

COP(C)(=O)OC
inactive: [1]

Cc1ccc([N+](=O)[O-])cc1[N+](=O)[O-]
inactive: [1] | [10]

Cc1ccc([N+](=O)[O-])c([N+](=O)[O-])c1
not listed: [1] | [10]
inactive: all other assays above
